Amino acid sequences for entries named in this document (tags omitted).
UniProt P81908, whole entry: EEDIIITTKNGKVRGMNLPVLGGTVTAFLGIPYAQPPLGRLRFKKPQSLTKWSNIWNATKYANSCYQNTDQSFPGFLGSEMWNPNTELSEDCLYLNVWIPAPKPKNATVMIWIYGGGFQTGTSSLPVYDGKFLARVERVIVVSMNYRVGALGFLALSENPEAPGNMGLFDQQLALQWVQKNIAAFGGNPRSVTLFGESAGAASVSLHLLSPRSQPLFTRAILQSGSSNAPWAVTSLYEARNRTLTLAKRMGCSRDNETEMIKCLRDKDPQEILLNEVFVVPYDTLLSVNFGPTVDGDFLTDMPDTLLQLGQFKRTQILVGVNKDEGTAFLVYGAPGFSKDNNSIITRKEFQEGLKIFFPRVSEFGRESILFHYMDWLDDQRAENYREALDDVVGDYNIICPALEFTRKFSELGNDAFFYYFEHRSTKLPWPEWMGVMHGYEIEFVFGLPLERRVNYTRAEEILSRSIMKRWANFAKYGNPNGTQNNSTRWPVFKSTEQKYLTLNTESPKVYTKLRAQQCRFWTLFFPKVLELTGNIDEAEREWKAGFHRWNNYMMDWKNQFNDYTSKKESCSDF

According to ChEMBL document CHEMBL5042497, “Design, synthesis, and biological evaluation of carbamate derivatives of N-salicyloyl tryptamine as multifunctional agents for the treatment of Alzheimer's disease” (Eur J Med Chem, 2022):

Key:
[1] = biological target: Cholinesterase (Equus caballus) (UniProt P81908); experiment: Reversible inhibition of equine serum BChE assessed as residual enzyme activity using butyrylthiocholine iodide as substrate at 0.1 times IC50 incubated for 30 mins by Ellman's method
[2] = biological target: Cholinesterase (Equus caballus) (UniProt P81908); experiment: Reversible inhibition of equine serum BChE assessed as residual enzyme activity using butyrylthiocholine iodide as substrate at 1 times IC50 incubated for 30 mins by Ellman's method

## CON(C)C(=O)Oc1ccccc1C(=O)NCCc1c[nH]c2ccccc12
[1]
  inhibition: 91.3%
[2]
  inhibition: 95.1%
